{"sequences": {"note": "The chains behind the UniProt entries cited, without tags or fusion partners. Residues count along the entry.", "UniProt P01903, 26-216 limits assumed": "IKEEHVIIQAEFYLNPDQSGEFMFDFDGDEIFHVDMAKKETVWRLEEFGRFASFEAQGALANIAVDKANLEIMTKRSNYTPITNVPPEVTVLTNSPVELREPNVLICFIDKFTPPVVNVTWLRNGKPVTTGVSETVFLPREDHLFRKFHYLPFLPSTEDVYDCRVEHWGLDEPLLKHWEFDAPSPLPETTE", "UniProt P01911, 30-227 limits assumed": "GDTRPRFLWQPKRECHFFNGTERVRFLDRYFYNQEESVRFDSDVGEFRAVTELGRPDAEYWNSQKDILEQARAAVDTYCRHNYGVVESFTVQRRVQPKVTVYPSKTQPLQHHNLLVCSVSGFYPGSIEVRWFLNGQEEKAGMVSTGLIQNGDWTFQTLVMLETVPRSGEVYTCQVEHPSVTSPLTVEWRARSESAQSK"}, "source": "patent US8314210B2", "about": "“Compositions and methods for the generation of MHC class II compounds by peptide exchange” (priority 2002, dated 2012)", "target": "HLA-DR2b (DRA, DRB1*1501) (Homo sapiens, UniProt P01903+P01911)", "experiment": "biochemical"}
{"molecule": "CC[C@H](C)[C@H](NC(=O)[C@H](CCC(=O)O)NC(=O)CNC(=O)[C@@H](NC(=O)[C@@H]1CCCN1C(=O)[C@@H](NC(=O)[C@@H]1CCCN1C(=O)[C@@H]1CCCN1C(=O)[C@@H](N)CC(N)=O)[C@@H](C)CC)C(C)C)C(=O)N[C@@H](Cc1ccc(O)cc1)C(=O)N[C@@H](CCCCN)C(=O)N[C@@H](CCCNC(=N)N)C(=O)N[C@@H](Cc1c[nH]c2ccccc12)C(=O)N[C@H](C(=O)N[C@H](C(=O)N[C@@H](CC(C)C)C(=O)NCC(=O)N[C@@H](CC(C)C)C(=O)N[C@@H](CC(N)=O)C(=O)N[C@@H](CCCCN)C(=O)N[C@H](C(=O)N[C@H](C(=O)O)C(C)C)[C@@H](C)CC)[C@@H](C)CC)[C@@H](C)CC", "note": "[p24 (121-142)]", "values": [{"measurement": "IC50", "value": 11, "unit": "µM"}]}
